Hits are enriched below; roughly 16% of the tested compounds scored in any of these assays.
miR-21 FLuc: raises the signal of a miR-21 reporter; HeLa miR-21 FLuc reporter, luciferase, 48 h; Potency, µM (top dose mostly 38.3 µM); AID 2288; 340,000 tested, under 10 active; active = well fitted rising curve with a large enough effect; inconclusive = small, poorly fitted or top-dose-only effect; inactive = no such curve, though single readings can be large or run the other way;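 note: miR-21 action dims this reporter so a rising signal means less miR-21 action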
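HeLa cells stably expressing CMV-driven firefly luciferase with a downstream miR-21 binding sequence, endogenously expressing miR-21, were treated with titrations (up to about 40uM final) for 48 hours at 37 degree Celsius. Luciferase luminescence was read after lysis.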
DT40 TDP1 no CPT: qHTS for Inhibitors of human tyrosyl-DNA phosphodiesterase 1 (TDP1): qHTS in cells in absence of CPT | hit rate 15% among 420,000 | DT40 Tdp1-/- hTDP1 cells, no CPT, ATP luminescence, 48 h | Potency, µM (doses to about 46.2 µM), usual class: inhibitors; also: nearly all actives have a fitted effect of over 55% in size
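Compound effects on proliferation are scored in DT40 Tdp1-/-;hTDP1 cells in the absence of CPT. ATP levels (CellTiter-Glo luminescence) are recorded after a ≥48 hr, 37 °C incubation.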
TDP1 cell CPT: DT40-hTDP1 cell growth loss with CPT; hit rate 12% among 420,000; Potency, µM (series often up to 46.2 µM), actives largely listed as inhibitors; chicken DT40 Tdp1-/-;hTDP1 cells + 20 nM CPT, ATP luminescence, 48 h; AID 686979; also: nearly all actives have a fitted effect of over 55% in size
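Cell growth measured by CellTiter-Glo luminescence after a minimum 48 h, 37 C compound exposure with 20 nM CPT in Tdp1-knockout DT40 cells stably expressing hTDP1, seeded 400/well; qHTS titration format.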
uPA generation: cell surface uPA generation inhibition; cell surface uPA generation assay, qHTS; Potency, µM (top dose mostly 38.3 µM), most hits filed as inhibitors; hit rate 0.31% among 330,000; active = well fitted inhibition curve with a large enough effect; inconclusive = small, poorly fitted or top-dose-only effect; inactive = no such curve, though single readings can be large or run the other way; tested in mouse RAW 264.7 cells; also: nearly all actives have a fitted effect of over 55% in size
TDP1 inh: blocks human tyrosyl-DNA phosphodiesterase 1. Potency, µM (doses to about 130 µM), actives largely listed as inhibitors. recombinant TDP1, AlphaScreen DNA substrate cleavage. AID 485290. hit rate 0.28% among 350,000; also: nearly all actives have a fitted effect of over 40% in size
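Steps: enzyme plus compound, 15 min RT; add biotin/phosphotyrosine-FITC oligonucleotide (15 nM final), react 5 min; add donor/acceptor beads (10 ug/ml final), 10 min; read AlphaScreen. Tdp1 at 1 nM final.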
Each line names hits and unclear results; the compound was inactive in the other large screens. Unless noted, calls follow the shape of the dose curve; as a rule, active = well fitted curve in the direction sought with a large enough effect; inconclusive = small, poorly fitted or top-dose-only effect, or another doubt; inactive = no such curve, though single readings can be large; an effect the other way counts as inactive or inconclusive.

Cc1ccc(C)c(CN2CCC(CNC(=O)Cn3ncc4c([nH]c5ccccc54)c3=O)CC2)c1	DT40 TDP1 no CPT 15µM, TDP1 cell CPT inconclusive (no result: uPA generation)
Cc1ccc(C)c(Cn2c3ccccc3c3cnn(CC(=O)NCc4ccccc4)c(=O)c32)c1	DT40 TDP1 no CPT 21µM, TDP1 cell CPT 23µM (no result: uPA generation)
O=C(Cn1ncc2c3ccccc3n(Cc3ccccc3)c2c1=O)NCc1ccccc1	DT40 TDP1 no CPT inconclusive (no result: uPA generation)
COc1ccc(NC(=O)CN2CCN(C(=S)NC3CCCC3)CC2)cc1	none
CN(C)c1ccc(CNC(=O)c2ccccc2NC(=O)c2nsc3ccccc23)cc1	DT40 TDP1 no CPT 13µM, TDP1 cell CPT 16µM (no result: uPA generation)
O=C(NCc1cccc(F)c1)c1ccccc1NC(=O)c1nsc2ccccc12	DT40 TDP1 no CPT 23µM, TDP1 cell CPT inconclusive (no result: uPA generation)
COCOc1ccc(Br)cc1C(=O)/C=C\c1ccc2c(c1)OCO2	none (no result: miR-21 FLuc, DT40 TDP1 no CPT, TDP1 cell CPT, uPA generation)
Cc1noc(C)c1S(=O)(=O)N(C)C[C@@H]1OCc2cn(nn2)CCCC(=O)N([C@@H](C)CO)C[C@H]1C	none (no result: miR-21 FLuc, uPA generation, TDP1 inh)
Cc1ccc(Cl)cc1NC(=O)C(Cc1ccccc1)N1C(=O)C2C3CCC(C3)C2C1=O (centres undefined)	DT40 TDP1 no CPT 15µM, TDP1 cell CPT inconclusive
Cc1ccc(NC(=O)C(Cc2ccccc2)N2C(=O)C3C4CCC(C4)C3C2=O)cc1Cl (centres undefined)	DT40 TDP1 no CPT inconclusive, TDP1 cell CPT inconclusive
COc1ccc(C)cc1NC(=O)CC(NC(C)=O)c1ccccc1 (centres undefined)	none
CCc1ccc(CNC(=O)c2cnc3sc(N(CC)CC)nn3c2=O)cc1	DT40 TDP1 no CPT inconclusive, TDP1 cell CPT 13µM (no result: uPA generation)
CCOc1ccc(CNC(=O)c2cnc3sc(N(CC)CC)nn3c2=O)cc1	DT40 TDP1 no CPT inconclusive, TDP1 cell CPT inconclusive (no result: uPA generation)
CCN(CC)c1nn2c(=O)c(C(=O)NCCc3ccccc3C)cnc2s1	DT40 TDP1 no CPT inconclusive, TDP1 cell CPT 16µM (no result: uPA generation)
CCOC(=O)c1cc(C)n(CC2CCC(C(=O)Nc3ccc(C(C)=O)cc3)CC2)c1C (centres undefined)	DT40 TDP1 no CPT 10µM, TDP1 cell CPT 12µM (no result: uPA generation)
CCOC(=O)c1cc(C)n(CC2CCC(C(=O)Nc3cccc(C(C)=O)c3)CC2)c1C (centres undefined)	DT40 TDP1 no CPT 26µM, TDP1 cell CPT 23µM (no result: uPA generation)
CCOC(=O)c1cc(C)n(CC2CCC(C(=O)Nc3ccc(C(=O)OC)cc3)CC2)c1C (centres undefined)	DT40 TDP1 no CPT 18µM, TDP1 cell CPT 23µM (no result: uPA generation)
CC(=O)c1ccc(NC(=O)C2CCCC2)cc1	none (no result: TDP1 inh)
COc1ccc(C(=O)Nc2ccccc2)cc1[N+](=O)[O-]	none (no result: miR-21 FLuc, DT40 TDP1 no CPT, TDP1 cell CPT, uPA generation)
C[C@@H]1CNC(=O)c2c(C(=O)NC3CCN(C(=O)OC(C)(C)C)CC3)ncn21	none (no result: miR-21 FLuc, uPA generation, TDP1 inh)
O=C(CNC(=O)N1CC(=O)Nc2ccccc21)NCCCc1ccccc1	none (no result: miR-21 FLuc, uPA generation, TDP1 inh)
COc1ccc(NC(=O)C(=O)NCC2CCCN2S(=O)(=O)c2cc(C)ccc2C)cc1 (centres undefined)	DT40 TDP1 no CPT 2.6µM, TDP1 cell CPT 4.1µM (no result: miR-21 FLuc)
Cc1ccc(C)c(S(=O)(=O)N2CCCC2CNC(=O)C(=O)Nc2ccccc2)c1 (centres undefined)	DT40 TDP1 no CPT inconclusive (no result: miR-21 FLuc, uPA generation, TDP1 inh)
Cc1ccc(S(=O)(=O)N2CCCC2CNC(=O)C(=O)NC2CC2)cc1 (centres undefined)	none (no result: miR-21 FLuc)
COc1ccc(S(=O)(=O)N2CCCC2CNC(=O)C(=O)NCc2ccccc2Cl)cc1 (centres undefined)	DT40 TDP1 no CPT 23µM, TDP1 cell CPT inconclusive (no result: miR-21 FLuc, TDP1 inh)
Cc1ccc(S(=O)(=O)N2CCCC2CNC(=O)C(=O)Nc2ccc(F)cc2)cc1 (centres undefined)	DT40 TDP1 no CPT 16µM, TDP1 cell CPT 21µM, uPA generation inconclusive (no result: miR-21 FLuc)
Cc1ccc(S(=O)(=O)N2CCCC2CNC(=O)c2ccc(F)c(F)c2)cc1 (centres undefined)	DT40 TDP1 no CPT 18µM, TDP1 cell CPT inconclusive (no result: miR-21 FLuc)
COc1ccc(NC(=O)C(=O)NCC2CCCN2S(=O)(=O)c2ccc(C)cc2)cc1 (centres undefined)	DT40 TDP1 no CPT 0.018µM, TDP1 cell CPT 0.0058µM (no result: miR-21 FLuc)
CC(C)(C)c1ccc(C(=O)NCC2CCCN2S(=O)(=O)c2ccccc2)cc1 (centres undefined)	DT40 TDP1 no CPT 12µM, TDP1 cell CPT 8.2µM (no result: miR-21 FLuc, TDP1 inh)
Cc1ccc(C(=O)NCC2CCCN2S(=O)(=O)c2ccc(C)cc2)cc1 (centres undefined)	DT40 TDP1 no CPT inconclusive, TDP1 cell CPT inconclusive (no result: miR-21 FLuc)
COc1ccc(S(=O)(=O)N2CCCC2CNC(=O)C(=O)Nc2ccc(C)cc2)cc1 (centres undefined)	DT40 TDP1 no CPT inconclusive, TDP1 cell CPT inconclusive (no result: miR-21 FLuc)
CCc1ccccc1NC1=NCC(=O)N1C1CCCCC1	none
CC1CC(C)CN(S(=O)(=O)c2ccc(C(=O)N3CCN(c4ccccc4)CC3)cc2)C1 (centres undefined)	DT40 TDP1 no CPT inconclusive, TDP1 cell CPT inconclusive
CC1CC(C)CN(S(=O)(=O)c2ccc(C(=O)N(C)Cc3ccccc3)cc2)C1 (centres undefined)	DT40 TDP1 no CPT 21µM, TDP1 cell CPT inconclusive, uPA generation inconclusive (no result: miR-21 FLuc)
CSc1ccc(CN(C)C(=O)c2ccc(S(=O)(=O)Nc3ccccc3)cc2)cc1	DT40 TDP1 no CPT 21µM, TDP1 cell CPT 18µM (no result: miR-21 FLuc)
O=C(c1ccc(F)cc1)N(c1ccccn1)C1CCCCC1	DT40 TDP1 no CPT inconclusive
CC1CC(C)CN(S(=O)(=O)c2ccc(C(=O)N(c3ccccn3)C3CCCCC3)cc2)C1 (centres undefined)	DT40 TDP1 no CPT 16µM, TDP1 cell CPT inconclusive
O=C(c1ccc(S(=O)(=O)N2CCCCCC2)cc1)N(c1ccccn1)C1CCCCC1	DT40 TDP1 no CPT inconclusive, TDP1 cell CPT inconclusive
O=C(c1ccc(S(=O)(=O)N2CCCCC2)cc1)N(c1ccccn1)C1CCCCC1	DT40 TDP1 no CPT inconclusive, TDP1 cell CPT 23µM
CSc1ccc(CN(C)C(=O)c2ccc(S(=O)(=O)Nc3c(C)n(C)n(-c4ccccc4)c3=O)cc2)cc1	TDP1 cell CPT inconclusive (no result: miR-21 FLuc, TDP1 inh)
O=S(=O)(c1ccc(Cl)cc1)N1CCN(C(=S)NCC2CCCO2)CC1 (centres undefined)	TDP1 cell CPT inconclusive
O=C(CC1CC1)Nc1ccc2c(c1)[C@H]1C[C@H](CC(=O)N3CCc4ccccc4C3)O[C@@H](CO)[C@H]1O2	none (no result: miR-21 FLuc, uPA generation, TDP1 inh)
O=C(C[N+]1(CCc2ccccc2)CCOCC1)c1ccccc1	none (no result: miR-21 FLuc, uPA generation, TDP1 inh)
CCCCSc1nnc2[nH]c(=O)cc(C)n12	none (no result: uPA generation)
Cc1cc2c(c(-c3nc4ccccc4s3)c1)OC(CNC(=O)CCc1cccnc1)C2 (centres undefined)	DT40 TDP1 no CPT 0.13µM, TDP1 cell CPT 0.12µM (no result: miR-21 FLuc, uPA generation, TDP1 inh)
O=C(CCc1cccnc1)NCC1Cc2cccc(-c3ncccn3)c2O1 (centres undefined)	none (no result: miR-21 FLuc, uPA generation, TDP1 inh)
Cc1nc(OCc2ccccc2)c2ccccc2n1	DT40 TDP1 no CPT inconclusive, TDP1 cell CPT inconclusive

Screens as filed in PubChem.
